In assay [1] the test system is L. (L.) amazonensis axenic amastigotes. Kind of assay: Growth inhibition of axenic amastigotes, MTT assay, 72 h. It is filed as cell-based, Leishmania (Leishmania) amazonensis. Particulars: on the basis of SI. A general note: Formazan colour is commonly taken as a measure of viable cells.
The subject of assay [2] is L. (L.) amazonensis promastigotes. Kind of assay: Growth inhibition of promastigotes, MTT assay, 72 h. To be noted: on the basis of SI. It is filed as cell-based, Leishmania (Leishmania) amazonensis.

Data on one compound can be found in PMC11279160, “Anti-Leishmania amazonensis Activity of Morolic Acid, a Pentacyclic Triterpene with Effects on Innate Immune Response during Macrophage Infection” (Microorganisms, 2024).

`CC1(C)C=C2[C@H]3CC[C@@H]4[C@@]5(C)CC[C@H](O)C(C)(C)[C@@H]5CC[C@@]4(C)[C@]3(C)CC[C@@]2(C(=O)O)CC1` [Morolic acid, morolic acid]: in assay [1], the “times more selective for axenic amastigotes than amphotericin B” value amounted to 32.1 times and the “times more selective for axenic amastigotes than meglumine antimoniate” value stood at 24.8 times. For the same compound, in assay [2], the “times more selective for promastigotes than amphotericin B” value is recorded as 57.8 times and the “times more selective for promastigotes than meglumine antimoniate” value was 79.8 times.
